In PMC2600596 (European journal of pharmacology, 2008) one finds Ki data, which are given here for one compound.

Chains of the proteins cited; added tags and fusions are not shown.
UniProt P35372, whole entry: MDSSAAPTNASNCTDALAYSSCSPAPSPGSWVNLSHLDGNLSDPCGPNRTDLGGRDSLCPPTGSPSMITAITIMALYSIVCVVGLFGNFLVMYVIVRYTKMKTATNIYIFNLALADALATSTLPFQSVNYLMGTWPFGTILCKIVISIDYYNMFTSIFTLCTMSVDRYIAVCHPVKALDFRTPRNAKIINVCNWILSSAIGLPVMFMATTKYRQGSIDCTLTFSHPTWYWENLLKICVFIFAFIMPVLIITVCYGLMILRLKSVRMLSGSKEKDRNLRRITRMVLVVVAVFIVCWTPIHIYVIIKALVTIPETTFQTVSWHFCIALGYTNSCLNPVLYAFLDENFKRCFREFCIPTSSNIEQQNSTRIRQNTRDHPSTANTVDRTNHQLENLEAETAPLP

The target in the experiment is hMOR (human mu opioid receptor) (Homo sapiens, UniProt P35372). The experiment can be described thus: cell-based. It is filed as binding.

The term Ki denotes a measure of affinity in units of concentration, obtained from inhibition or displacement. A low value points to a stronger hold on the target. The compound `Oc1ccc2c3c1O[C@H]1c4[nH]c5ccccc5c4C[C@@]4(O)[C@@H](C2)N(CC2CC2)CC[C@]314` [Naltrindole, naltrindole] yielded an inhibition constant (Ki) of 6.1 nM.
